Source: BindingDB's records for doi:10.1016/j.bmc.2012.01.022 (Florida A&M University, 2012)

Sequences of proteins named here, by UniProt entry; tags and fusion partners are left off. A line that says so, or that is headed by a name, gives the form on record, which may keep a tag or linker.
UniProt P35462, as listed by the source: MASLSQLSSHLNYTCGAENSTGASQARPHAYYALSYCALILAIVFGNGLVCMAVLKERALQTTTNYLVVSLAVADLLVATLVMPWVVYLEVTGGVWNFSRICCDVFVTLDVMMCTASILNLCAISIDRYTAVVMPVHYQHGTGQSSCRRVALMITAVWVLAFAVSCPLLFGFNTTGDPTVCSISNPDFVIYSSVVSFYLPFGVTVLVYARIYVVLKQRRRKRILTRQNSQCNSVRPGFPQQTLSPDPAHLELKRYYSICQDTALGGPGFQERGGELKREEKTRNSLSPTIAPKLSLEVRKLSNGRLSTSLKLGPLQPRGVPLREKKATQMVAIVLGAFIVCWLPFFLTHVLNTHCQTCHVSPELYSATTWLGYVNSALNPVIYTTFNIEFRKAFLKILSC
UniProt P14416, whole entry: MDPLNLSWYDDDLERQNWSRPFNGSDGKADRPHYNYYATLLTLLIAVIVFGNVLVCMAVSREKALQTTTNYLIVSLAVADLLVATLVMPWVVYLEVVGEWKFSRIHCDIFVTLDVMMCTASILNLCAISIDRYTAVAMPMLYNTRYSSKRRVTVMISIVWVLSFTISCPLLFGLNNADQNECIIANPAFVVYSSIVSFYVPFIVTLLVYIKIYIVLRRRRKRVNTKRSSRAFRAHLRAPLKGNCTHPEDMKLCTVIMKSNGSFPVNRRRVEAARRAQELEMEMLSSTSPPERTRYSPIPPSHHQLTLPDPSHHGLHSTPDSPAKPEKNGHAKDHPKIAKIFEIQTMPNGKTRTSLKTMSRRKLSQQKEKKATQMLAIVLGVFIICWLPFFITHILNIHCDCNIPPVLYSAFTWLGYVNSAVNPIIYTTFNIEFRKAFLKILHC

Key:
D(3) dopamine receptor = D(3) dopamine receptor (Homo sapiens, UniProt P35462); experiment: Displacement of [3H]-N-methylspiperone from dopamine D3 receptor expressed in human MES-23.5
D(2) dopamine receptor = D(2) dopamine receptor (Homo sapiens, UniProt P14416); experiment: Displacement of [3H]-N-methylspiperone from dopamine D2 receptor expressed in human MES-23.5 cells

SMILES | Ki (D(3) dopamine receptor) | Ki (D(2) dopamine receptor)
OC1(c2ccc(Cl)cc2)C[C@H]2CC[C@@H](C1)N2CCCCc1nc2ccccc2s1 (stereo partly drawn) | 13 nM | 44 nM
O=C(CCCCN1[C@@H]2CC[C@H]1CC(O)(c1ccc(Cl)cc1)C2)c1nc2ccccc2s1 (stereo partly drawn) | 16 nM | –
